The text below walks through data of patent publication US9789092B2 (Assistance Publique—Hopitaux de Paris, priority 2013, dated 2017).

This test concerns patient suffering from AMN. On the procedure:
At Month 5, a brain MRI with brain NMR spectroscopy (NMRS) was performed in the brain white matter.

As to `O=C(O)CCCC[C@@H]1SC[C@@H]2NC(=O)N[C@@H]21` [biotin, Biotin], the Ch/NAA ratio (M5: 2013 Jun. 25, after treatment, baseline 0.90) came to 0.86. In addition, the Ch/Cr ratio (M5: 2013 Jun. 25, after treatment, baseline 1.50) worked out at 1.56. For the setting “Month 5”, the “N-acetyl aspartate (NAA)/creatine (Cr) ratio compared to baseline, in words” value is recorded as “some improvement”.
